Screening data (PubChem)
This is a sample that favours compounds with a hit; in the whole collection about 2.3% have one here.
ASAP1 GAP inh: blocks human ASAP1-stimulated Arf1 GTP hydrolysis; GDP FP detection; inhibition, % at 16.5 µM; Q9ULH1; actives 0.19% (n = 360,000); in the data active = inhibition above about 25%
CendR NRP1 mod: alters CendR peptide binding to human NRP-1; O14786; FAM-RPARPAR peptide binding to NRP-1, fluorescence polarization; inhibition, % at 25 µM; actives 0.85% (n = 360,000); AID 602438;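 active = inhibition or corrected inhibition above about 18%, plus a signal ratio from 0.5 to 1.5, limit read from the data, passing the limit was not always enough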
MC4R barr agon: agonists of human melanocortin 4 receptor (MC4R) beta-arrestin | P32245 | U2OS MC4R beta-arrestin complementation, luminescence; percent of melanotan II response, DMSO zero | activation, % at 8.9 µM | actives 0.98% (n = 360,000) | AID 540308;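 active = activation above a per-plate cutoff, the mean activation of sample wells on that plate plus 3 SD, cut at about 8% in these data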
MC4R antagonist: blocks human MC4R cAMP signaling. MC4R-expressing cells, MTII-stimulated cAMP, LANCE TR-FRET. actives 0.48% (n = 360,000). inhibition, % at 6.5 µM;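 active = inhibition above its plate's cutoff, the mean of tested wells on that plate plus 3 SD, cut at about 29% in these data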
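Assay system: U2OS cells stably expressing human melanocortin 4 receptor (MC4R) / Dosing: 6.5 µM / Timing: compound 30 min, challenge 1 h, detection 1 h / Measured by: Eu-cAMP/anti-cAMP TR-FRET, emission 671 nm / Replicates: singlicate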
Yeast UUG start: modulators of start codon recognition fidelity in yeast. S. cerevisiae UUG-firefly luciferase reporter, luminescence/redox ratio. activity score, % at 18.7 µM. 0.13% of 350,000 active. AID 602363;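 active = replicate mean at a twofold rise or more, about +100% in these data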;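 also: firefly luciferase made from a UUG start codon reports start codon fidelity; reporter light over untreated wells divided by growth signal over untreated wells; some hits fall short of that in this replicate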
ARFGAP1 inhibitor: inhibitors of rat ARFGAP1; Q62848; Arfgap1-stimulated ARF1 GTP hydrolysis, GDP FP detection; inhibition, % at 16.5 µM; actives 0.26% (n = 360,000); AID 651572;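 active = inhibition above a per-plate limit, mean inhibition of low control wells plus 3 SD, cut at about 25% in these data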
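Assay system: purified rat His6-Arfgap1 residues 1-136 (GAP domain); Reagent: human Δ17 ARF1 bound to GTP; Dosing: 16.5 µM single point, 1.26% DMSO; Times: GTP hydrolysis reaction 2 h at 25 °C; Signal: FP, GDP Alexa 633 tracer displaced from anti-GDP antibody, 620/688 nm; Measure: % inhibition from polarization.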
ARFGAP1 confirm: rat ARFGAP1 inhibition, confirmed; ARFGAP1-stimulated ARF1 GTP hydrolysis, GDP tracer FP; actives 30% (n = 890); inhibition, % at 16.5 µM; shares compounds with ARFGAP1 inhibitor;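 active = average inhibition over triplicates above the hit cutoff set in the earlier primary screen, cut at about 25% in these data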
A number is an active result; 0 = inactive; - = no result.

SMILES	ASAP1 GAP inh	CendR NRP1 mod	MC4R barr agon	MC4R antagonist	Yeast UUG start	ARFGAP1 inhibitor	ARFGAP1 confirm
Cc1cccc2nc(-c3cccc(NC(=O)Cc4ccccc4)c3)cn12	0	0	0	0	0	0	-
[N-]=[N+]=NCc1ccccc1C[C@]1(C(N)=O)N=C(c2ccc(OCCCO)cc2)O[C@H]1c1ccccc1	-	-	-	-	0	-	-
CC1CCCCN1CC(O)COCCC12CC3CC(CC(C3)C1)C2 (stereo unspecified)	0	0	0	0	0	25	0
COc1cccc(-c2nnc3sc(-c4ccccn4)nn23)c1	0	0	0	0	0	41	45
COc1cccc(-c2nn3c(-c4ccccn4)nnc3s2)c1	0	0	0	0	0	0	-
Cc1ccccc1Nc1c([N+](=O)[O-])cncc1[N+](=O)[O-]	0	0	0	0	0	27	0
COc1ccccc1Nc1c([N+](=O)[O-])cncc1[N+](=O)[O-]	0	0	0	0	-	0	-
C[C@@H]1CN([C@H](C)CO)C(=O)c2cccc(NS(C)(=O)=O)c2O[C@@H]1CN(C)C(=O)Nc1ccc(F)cc1	-	-	-	-	0	-	-
Cc1ccc2sc(-c3ccc(NC(=O)c4cc(-n5cnnc5)ccc4Cl)cc3)nc2c1	0	0	0	0	0	28	0
C[C@H]1CN([C@@H](C)CO)S(=O)(=O)c2ccc(C#CCN(C)C)cc2O[C@H]1CN(C)C	-	-	-	-	0	-	-
Cc1ccc(/C=N/Nc2cccc3cccnc23)c(O)c1	0	0	0	0	0	0	-
Oc1ccc(/C=N/Nc2cccc3cccnc23)c(O)c1	0	0	0	0	0	51	0
Cc1ccc(C(=O)N[C@@H](C)CN2C3=NC[C@H](C(C)C)N3C[C@H]2Cc2ccc(O)cc2)cc1Br	0	0	0	0	0	26	0
COc1ccc(C[C@H]2CN3C(=NC[C@@H]3C(C)C)N2C[C@H](C)NC(=O)c2ccc(C)c(Br)c2)cc1	0	0	0	0	0	0	-
O=C(/C=C/c1ccco1)Nc1ccc(C(=O)N2CCOCC2)cc1	0	0	0	0	0	0	-
O=C(/C=C/c1ccco1)Nc1ccc(N2CCCC2)cc1	0	0	0	0	-	26	0
Cn1nc(-c2ccc(C(=O)Nc3ccc(F)cc3)cc2)c2ccccc2c1=O	-	0	0	0	-	-	-
Cn1nc(-c2ccc(C(=O)Nc3cccnc3)cc2)c2ccccc2c1=O	0	0	0	0	-	25	0
COC(=O)c1ccc(NC(=O)CSc2nnc(COc3ccccc3)n2C)cc1	0	0	0	0	0	0	-
Cc1sc(NC(=O)CSc2nnc(COc3ccccc3)n2C)c(C#N)c1C	0	0	0	0	-	25	0
CCCCCn1c(=O)[nH]c2cc(C(=O)N3CCN(C(=O)OCC)CC3)ccc2c1=O	0	0	0	0	0	25	0
CCN(CC)CCNC(=O)c1ccc(NC(=O)c2cc(-c3ccco3)nc3ccccc23)cc1	0	0	0	0	0	26	0
CCN(CC)CCNC(=O)c1ccc(NC(=O)c2cn(-c3ccccc3)nc2-c2cccs2)cc1	0	0	0	0	-	39	56
CN(C)C(=O)c1ccc(NC(=O)c2cc(-c3ccco3)nc3ccccc23)cc1	0	0	0	0	0	0	-
O=C(Cc1ccncc1)NCC[C@@H]1CC[C@@H](NC(=O)C2CCCCC2)[C@H](CO)O1	-	-	-	-	0	-	-
SMILES	ASAP1 GAP inh	CendR NRP1 mod	MC4R barr agon	MC4R antagonist	Yeast UUG start	ARFGAP1 inhibitor	ARFGAP1 confirm
Cc1ccc2cc(CCNC(=O)C(C)(C)C)c(=O)[nH]c2c1	0	0	0	0	0	28	0
Cc1ccc2cc(CCNC(=O)C3CCCC3)c(=O)[nH]c2c1	0	0	0	0	0	0	-
O=S(=O)(c1ccccc1)N1CCCCN2[C@H](C1)[C@@H](c1ccc(-c3ccccc3F)cc1)[C@@H]2CO	-	-	-	-	0	-	-
C[C@@H]1CN([C@@H](C)CO)C(=O)c2cccc(NC(=O)C3CCOCC3)c2O[C@H]1CN(C)Cc1ccc(C(F)(F)F)cc1	-	-	-	-	0	-	-
COc1cc(/C=N/Nc2ccc(C(F)(F)F)cn2)ccc1O	0	0	0	0	-	29	0
O=C(O)c1ccc(/C=N/Nc2ccc(C(F)(F)F)cn2)cc1	0	0	0	0	-	0	-
O=C(Cn1c2ccc(F)cc2c2nc3n(c(=O)c21)CCS3)Nc1ccc(Cl)cc1F	0	0	0	0	0	42	57
CC1Cc2ccccc2N1C(=O)CN1CCC(n2nnc3cc(C(F)(F)F)ccc32)CC1 (stereo unspecified)	0	0	0	0	0	28	0
Cc1nn(C)c(Cl)c1/C=N/OC(=O)c1ccccc1	0	0	0	0	0	32	0
Cc1nn(C)c(Cl)c1/C=N/OC(=O)c1ccc(F)cc1	0	0	0	0	-	0	-
C[C@@H]1CN([C@H](C)CO)C(=O)c2cc(C#Cc3cccnc3)cnc2O[C@@H]1CN(C)C(=O)CC1CC1	-	-	-	-	0	-	-
CCn1c(COc2cc(C)ccc2C(C)C)nnc1SCC(=O)Nc1nccs1	0	0	0	0	-	25	0
COc1ccc(N/N=C(/C#N)S(=O)(=O)c2nsc(C)c2C#N)cc1	0	0	0	0	0	28	0
O=c1[nH]c2ccccc2nc1-c1c[nH]c2ccccc12	0	0	0	0	0	26	0
Nc1ccccc1-c1nc2ccccc2[nH]c1=O	0	0	0	0	0	0	-
Cc1ccc(S(=O)(=O)N(C)C[C@H]2Oc3ccc(NS(=O)(=O)c4c(C)noc4C)cc3C(=O)N([C@H](C)CO)C[C@@H]2C)cc1	-	-	-	-	0	-	-
Cc1cccc(S(=O)(=O)N2CCCCN3[C@H](CO)[C@H](c4ccc(C#CC(C)C)cc4)[C@@H]3C2)c1	-	-	-	-	0	-	-
N#Cc1c(NC(=O)C2CC(c3c(F)cccc3Cl)=NO2)sc2c1CCC2 (stereo unspecified)	0	0	0	0	-	35	56
CCc1c(C)sc(NC(=O)C2CC(c3c(F)cccc3Cl)=NO2)c1C#N (stereo unspecified)	0	0	0	0	0	0	-
O=C(NCC[C@H]1CC[C@H](NS(=O)(=O)Cc2ccccc2)[C@@H](CO)O1)C1CCCC1	-	-	-	-	0	-	-
CC(C)NC(=O)N(C)C[C@@H]1Oc2c(NC(=O)c3nc4ccccc4s3)cccc2C(=O)N([C@@H](C)CO)C[C@@H]1C	-	-	-	-	0	-	-
C[C@@H]1CN([C@@H](C)CO)C(=O)CCCn2nncc2CO[C@H]1CN(C)Cc1ccc(C(=O)Nc2ccccc2N)cc1	-	-	-	-	0	-	-
CCN(CC)C(=O)CN(c1cccc(Br)c1)S(C)(=O)=O	0	0	0	0	0	0	-
CCN(CC)C(=O)CN(c1cccc(C(F)(F)F)c1)S(C)(=O)=O	0	0	0	0	0	31	0
COc1ccc(S(=O)(=O)NCc2cccnc2)cc1NC(=O)c1ccc(Cl)cc1	0	0	0	0	0	25	0
